Legend:
PC-3 = format: functional, cell-based; details: Homo sapiens, PC-3, 96 h
MDA-MB-231 = format: functional, cell-based; details: Homo sapiens, MDA-MB-231, 96 h

SMILES: C/C(=N\NC(=O)c1cccc(S(=O)(=O)N2CCOCC2)c1)c1cc(Cl)ccc1O
- IC50 (PC-3): 2160 nM
- IC50 (MDA-MB-231): 1040 nM

— ChEMBL document CHEMBL3102716, “High-throughput virtual screening identifies novel N'-(1-phenylethylidene)-benzohydrazides as potent, specific, and reversible LSD1 inhibitors” (J Med Chem, 2013)
